The list shows a part of the results, in another mix than the full data. Entries with a potency or affinity are not part of this list. Active and inactive are the calls of the source.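 The calls were made as follows: active = top tenth filtered wells with inhibition above zero that passed visual or statistical confirmation; inactive = the rest, including hits rejected on review.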
Assay: inhibitors of TNFa-induced VCAM-1 surface display, imaging, high-content imaging, pooled HUVEC, TNFa stimulus (AID 456)
Conditions: HUVEC TNFa-induced VCAM-1 surface expression, immunofluorescence imaging

Structure (SMILES) | outcome
Cc1ccc(C)c(NP(C)(=O)Oc2ccccc2)c1 (stereo not given) | inactive
CP(=S)(Nn1cnnc1)Oc1ccccc1 (stereo not given) | inactive
CP(=O)(Nc1ccccn1)Oc1ccccc1 (stereo not given) | inactive
CN(C)CCOC(=O)C(O)(c1ccccc1)C1CCCCC1 (stereo not given) | inactive
CP(=O)(Nc1ccc2c(c1)OCCO2)Oc1ccccc1 (stereo not given) | inactive

Reference: PubChem BioAssay AID456 (Sanford-Burnham Center for Chemical Genomics, 2006)
